# Data reported in PubChem BioAssay AID701 (PCMD, 2007).
# Amino acid sequences for entries named in this document (tags omitted). Residues count along the entry.
# UniProt P00748, 20-372 limits assumed: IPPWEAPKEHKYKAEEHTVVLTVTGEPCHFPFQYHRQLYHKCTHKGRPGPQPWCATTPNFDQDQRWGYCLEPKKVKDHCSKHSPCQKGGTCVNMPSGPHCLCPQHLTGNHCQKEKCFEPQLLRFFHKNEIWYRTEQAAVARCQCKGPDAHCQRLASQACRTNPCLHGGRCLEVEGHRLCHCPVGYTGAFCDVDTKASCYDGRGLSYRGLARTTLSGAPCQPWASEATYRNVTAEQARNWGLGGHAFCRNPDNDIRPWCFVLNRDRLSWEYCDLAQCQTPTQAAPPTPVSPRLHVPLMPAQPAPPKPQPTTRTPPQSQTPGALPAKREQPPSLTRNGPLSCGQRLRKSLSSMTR
# UniProt P00748, 373-615 limits assumed: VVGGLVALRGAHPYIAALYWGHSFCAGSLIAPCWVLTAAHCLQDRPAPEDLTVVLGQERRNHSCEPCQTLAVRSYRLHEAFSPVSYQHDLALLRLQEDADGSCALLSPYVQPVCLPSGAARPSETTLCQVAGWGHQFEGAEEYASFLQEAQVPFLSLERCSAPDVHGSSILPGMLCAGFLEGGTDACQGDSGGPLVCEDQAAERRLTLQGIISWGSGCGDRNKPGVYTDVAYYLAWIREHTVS
# Only a part is listed here, and it is no random draw. The source made the active and inactive calls. Rule as the data show it: active = inhibition above about 30%; inactive = the rest.
# Biological target: Coagulation factor XII (Homo sapiens) (UniProt P00748)
# Test: human FXIIa protease inhibitors, primary screen, biochemical, single well (AID 701);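 also: 0% = enzyme with vehicle only and 100% = no enzyme blank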
# Details: purified human FXIIa, AMC substrate fluorescence, 2 h; at 10 µM; stronger effect = higher value
row,Structure (SMILES),inhibition
1,O=C(NCC1(N2CCOCC2)CCCCC1)c1cc(=O)[nH]c2ccccc12,inactive: -1.93%
2,O=C(NCC1(N2CCOCC2)CCCCC1)c1cc2ccccc2o1,inactive: 2.9%
3,CCC(CO)(C(=O)OC1CN2CCC1CC2)c1ccccc1 (centres undefined),inactive: 1.28%
4,c1ccc(CN2CCC(Nc3ccccc3)CC2)cc1,inactive: -3.84%
